# Laboratory results from US11118211B2, “Methods for the design of mechanism-based sirtuin activating compounds” (CHAKRABARTI ADVANCED TECHNOLOGY LLC, priority 2015, dated 2021).
# Biological target: T1, Human Sirt3 protein (Homo sapiens, UniProt Q9NTG7)
# T1 sequence (Q9NTG7 102-399): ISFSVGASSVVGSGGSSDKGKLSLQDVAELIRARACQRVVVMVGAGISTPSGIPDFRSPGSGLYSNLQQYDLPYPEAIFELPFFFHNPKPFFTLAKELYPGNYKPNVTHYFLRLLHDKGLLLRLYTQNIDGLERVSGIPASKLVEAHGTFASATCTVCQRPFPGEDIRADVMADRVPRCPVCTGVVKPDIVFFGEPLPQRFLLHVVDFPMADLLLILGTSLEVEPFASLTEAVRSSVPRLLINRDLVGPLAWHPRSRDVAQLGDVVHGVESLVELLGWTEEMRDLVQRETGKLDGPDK
# Settings: Honokiol at 10 uM
smiles,measurement,setting,value
"C=CCc1ccc(O)c(-c2ccc(O)c(CC=C)c2)c1 [Honokiol, 5,3′-Diallyl-2,4′-dihydroxybiphenyl]",hit validation by label-free kinetic assay,"[NAD+] 50 uM, threshold vapp/v=1.10",not validated as a hit
same,SIRT3 activation in label-free assay,"for specified Km,NAD+,app/Km,NAD+=0.7 or 0.8",does not activate SIRT3
